Literature values, collected in PMC3087300 (Bioorganic & medicinal chemistry, 2009).

Amino acid sequences for entries named in this document (tags omitted). Residues count along the entry.
UniProt P07288, 25-261: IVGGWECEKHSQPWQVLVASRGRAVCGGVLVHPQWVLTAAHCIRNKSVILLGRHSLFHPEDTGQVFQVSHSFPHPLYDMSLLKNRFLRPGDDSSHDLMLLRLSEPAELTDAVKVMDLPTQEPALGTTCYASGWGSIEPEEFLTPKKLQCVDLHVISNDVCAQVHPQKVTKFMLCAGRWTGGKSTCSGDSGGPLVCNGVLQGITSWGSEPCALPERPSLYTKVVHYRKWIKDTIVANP

Target: PSA (Homo sapiens, UniProt P07288)
Conditions: read-out: Ki for PSA; parent boronic acid, previous report; cited from earlier work

Q: For “Cbz-Ser-Ser-Lys-Leu- (boro)Leu (SSKLL) [Compound 1]”, which Ki is on record?
A: 65 nM
